Among the data in PMC3662788, “The Catalytic Roles of P185 and T188 and Substrate-Binding Loop Flexibility in 3α-Hydroxysteroid Dehydrogenase/Carbonyl Reductase from Comamonas testosteroni” (PLoS ONE, 2013) are Kd values, retold here.

One assay has as its target T1, T188A mutant 3α-HSD/CR (Comamonas testosteroni, UniProt P80702, T188A).
T1 construct: His-tag (inferred from pET15b vector and Ni-NTA purification) (N); made in house; host or cells: Escherichia coli BL21(DE3)
Put plainly: NADH binding by quenching of intrinsic enzyme fluorescence (fluorescence titration). As to conditions: 2 µM enzyme, 40 mM Hepes pH 7.5, room temperature.

The target of another assay is T2, T188S mutant 3α-HSD/CR (Comamonas testosteroni, UniProt P80702, T188S).
T2 construct: His-tag (inferred from pET15b vector and Ni-NTA purification) (N); made in house; host or cells: Escherichia coli BL21(DE3)
The description is as above. As to conditions: 2 µM enzyme, 40 mM Hepes pH 7.5, room temperature.

Another assay deals with T3, P185A mutant 3α-HSD/CR (Comamonas testosteroni, UniProt P80702, P185A).
T3 sequence (P80702 1-257 P185A): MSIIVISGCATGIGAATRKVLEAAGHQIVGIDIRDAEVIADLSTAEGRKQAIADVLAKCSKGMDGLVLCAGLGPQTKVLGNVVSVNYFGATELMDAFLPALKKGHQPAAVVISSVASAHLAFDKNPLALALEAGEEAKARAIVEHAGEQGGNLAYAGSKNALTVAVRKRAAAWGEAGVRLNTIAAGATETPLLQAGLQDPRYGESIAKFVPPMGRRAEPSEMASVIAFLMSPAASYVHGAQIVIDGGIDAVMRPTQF
The description is as above. More on the design: His-tag (inferred from pET15b vector and Ni-NTA purification) (N); made in house; host or cells: Escherichia coli BL21(DE3). The conditions noted are these: 2 µM enzyme, 40 mM Hepes pH 7.5, room temperature.

A further assay addresses T4, wild-type 3α-HSD/CR (Comamonas testosteroni, UniProt P80702).
T4 sequence (P80702 1-257): T3 sequence (P80702 1-257 P185A) with A185P
More on the design: His-tag (inferred from pET15b vector and Ni-NTA purification) (N); made in house; host or cells: Escherichia coli BL21(DE3); method as in PMID 19853671. The conditions noted are these: wild-type NADH-enzyme complex, fluorescence titration, pH 7.5; cited from earlier work.

Changes are numbered by the printed parent chain.

Consider NADH, for which the equilibrium dissociation constant (Kd) is 97 ± 6 µM at T188A mutant 3α-HSD/CR, 94 ± 6 µM on T188S mutant 3α-HSD/CR, 163 ± 29 µM at P185A mutant 3α-HSD/CR and 2.8 ± 0.9 µM at wild-type 3α-HSD/CR.
